Earlier results in paper PMC5724361 (ACS chemical biology, 2017).

Sequences of proteins named here, by UniProt entry; tags and fusion partners are left off. Residues count along the entry.
UniProt P05067, 672-711 limits assumed: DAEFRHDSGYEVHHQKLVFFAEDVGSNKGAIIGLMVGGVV

Biological target: Aβ1–40 (Homo sapiens, UniProt P05067)
Settings: cited from earlier work

Leucine enkephalin acetate hydrate
KD of Aβ:leucine enkephalin complexes: in the µM range
